Measured values from patent publication US12600729B2, “New-type benzazepine fused ring derivative” (SHANGHAI JEYOU PHARMACEUTICAL CO., LTD., priority 2021, dated 2026).
Like-named read-outs stand apart in the source and are kept apart here.

Protein sequences, listed by entry. Tags and fused reporters are not part of them. Lines headed by an entry give the natural chain unless they say otherwise; changes in a name come on top.
UniProt P30518, whole entry: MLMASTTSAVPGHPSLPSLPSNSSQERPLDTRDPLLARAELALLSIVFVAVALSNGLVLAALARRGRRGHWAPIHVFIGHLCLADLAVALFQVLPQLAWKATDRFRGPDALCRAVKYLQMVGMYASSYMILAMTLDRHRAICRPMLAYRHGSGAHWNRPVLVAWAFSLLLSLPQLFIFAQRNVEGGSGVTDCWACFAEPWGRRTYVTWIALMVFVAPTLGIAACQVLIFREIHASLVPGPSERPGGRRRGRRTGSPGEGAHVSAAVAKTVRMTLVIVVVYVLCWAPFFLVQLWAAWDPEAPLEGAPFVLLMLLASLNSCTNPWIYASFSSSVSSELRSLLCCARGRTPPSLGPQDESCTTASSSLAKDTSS

Molecular target: T1, human V2R (Homo sapiens, UniProt P30518)
T1 construct: purchased Perkinelmer, USA
Test: Competitive isotope ligand binding, V2 receptor
Procedure: The cells with high expression of human V1a receptor were amplified, collected, washed twice with PBS, resuspended with PBS containing a protease inhibitor, homogenized with a homogenizer at 15000 r/min to break the cells, and centrifuged at 4° C. and 3000 r/min for 15 minutes. The supernatant was collected, centrifuged at 20,000 r/min at 4° C. for 45 minutes. Then the supernatant was discarded to obtain a cell membrane precipitation. Buffer was added to resuspend to measure the protein concentration, aliquoted, and stored at −80° C. The cell membranes of highly expressed human V1b and V2 receptors were purchased from Perkinelmer, USA.
The stock solution of the test compound and that of the positive control were diluted to 1 mM (10-fold dilution) and 0.1 mM (100-fold dilution) with DMSO, respectively, and then sequentially subjected to a four-fold dilution with DMSO to the tenth point.
Cell membranes overexpressing human receptors were prepared with assay buffer to 5 mg/mL.
• 1. 1 μL of the compound was aspirated from the dilution plate into each well of the 96-well assay plate (the concentration of the test compound in the reaction would be diluted 100-fold). To the control well was added 1 μL of DMSO. • 2. 10 mL of membrane solution containing 5 μg/μL was prepared. • 3. To the compound assay plate was added the membrane solution from step 2 with a pipette, and each well was added with 89 μL of the membrane solution. • 4. […] The configured test plate was placed at 30° C. and incubated for 60 minutes. • 6. The membrane complexes were collected into 0.5% PEI pre-coated GF/B plate with Cell Harvester, washed 3 times with 2 mL of pre-cooled elution buffer at 4° C., and dried at 37° C. for 2 hours. • 7.
Y=Bottom+(Top−Bottom)/(1+10^((X−Log IC50))), wherein: Y is the reading value of the liquid scintillation counter, and X is the logarithmic value of the compound concentration.

Ki (Binding affinity V2R, N = 1, isotope-labeled vasopressin 1 nM, experiment 1): 0.27 nM | Ki (Binding affinity V2R, N = 2, isotope-labeled vasopressin 1 nM, experiment 2): 0.6 nM | Ki (isotope-labeled vasopressin 1 nM, mean ± spread, read-out: Binding affinity V2R, mean of the two experiments): 0.44 ± 0.17 nM
Compound: Cc1ccccc1C(=O)Nc1ccc(C(=O)N2CCCC(O)c3cc(Cl)ccc32)c(C)c1 (stereo not drawn) [Reference substance 1, Tolvaptan, reference compound]
